Read-outs that look alike come from different tables or passages of the source.
Tests used:
[1] = tested on: formalin-induced paw-licking; experiment: Formalin test (paw licking/biting) in mice; assay type: in vivo; settings: 1 mg/kg i.p., one value per animal #01-08
Protocol: The formalin test for antinociceptive activity is described in numerous publications, e.g., Hunskaar, S., O. B. Fasmer, and K. Hole, J. Neurosci. […] The formalin test is accepted as an art recognized model of persistent clinical pain.
Male Swiss Webster NIH mice (20-30 g; Harlan, San Diego, Calif.) were used in the experiments described herein. Food was withdrawn on the day of experiment. Mice were placed in Plexiglass jars for at least 1 hour to accommodate to the environment. Following the accommodation period, mice were weighed and given either a huperzine compound administered intraperitoneal (i.p.) or oral (p.o.), or the appropriate volume of vehicle (10% Tween-80). Fifteen minutes after the i.p. dosing, and 30 minutes after the p.o. dosing mice were injected with formalin (20 μL of 5% formaldehyde solution in saline) into the dorsal surface of the right hind paw. Mice were transferred to the Plexiglass jars and monitored for the amount of time spent licking or biting the injected paw. Periods of licking and biting were recorded in 5 minute intervals for 40 minutes after the formalin injection. All experiments were done in a blinded manner. The early phase (acute) of the formalin response is measured as licking/biting between 0-5 minutes, and the late phase (inflammatory) is measured from 10-40 minutes. Differences between vehicle and drug treated groups are analyzed by one-way analysis of variance (ANOVA). A P value<0.05 is considered significant.
Fifteen minutes after the i.p. dosing, mice were injected with formalin (20 μL of 5% formaldehyde solution in saline) into the dorsal surface of the right hind paw. Periods of licking and biting were recorded in 5 minute intervals for 40 minutes after the formalin injection as shown below in Tables 1 and 2. All experiments were done according to the art-recognized Anticonvulsant Screening Program of the NINDS at the University of Utah.
Duration of paw licking in the tables below is expressed in seconds.

[2] = tested on: motor skills on rotorod; experiment: Toxicity Model (TOX), rotorod, mice; assay type: in vivo; settings: I.P., 5 mg/kg
Source text: To investigate the neurotoxicity levels of the huperzine compounds, the Toxicity Model (TOX) using a rotorod is employed. The animals (e.g., mice) were trained to stand on an accelerating rotorod rotating at 10 rev min^−1 with a diameter of 3.2 cm. The trained animal can be given the huperzine compound at various doses and the effect of huperzine on their motor skills can be determined. The dose at which the animals fell off the rotorod is the toxic dose.
The neurotoxicity of huperzine was tested in the rotorod test. The mice were trained to stand on an accelerating rotorod rotating at 10 rev min^−1 with a diameter of 3.2 cm. The trained animals were given the huperzine at various doses and the effect of huperzine on their motor skills was determined. The dose at which the animals fell off the rotorod was the toxic dose.

[3] = tested on: 6 Hz limbic seizures (corneal stimulation); settings: IP, 1 h
[4] = tested on: minimal motor impairment (ataxia, abnormal gait and stance); experiment: Toxicity (TOX) / minimal motor impairment, rats; settings: oral, 1 mg/kg

C/C=C1\[C@H]2C=C(C)C[C@]1(N)c1ccc(=O)[nH]c1C2 [Huperzine A]
5/8: N/F, ED50 Biological Response ([3]; 22 mA, 0.35 mg/kg)
4/4: N/F, TOX time course ([2]; 0.5 h) | N/F, TOX time course ([2]; 1.0 h) | N/F, TOX time course ([2]; 2.0 h) | N/F, TOX time course ([2]; 4.0 h) | N/F, TOX time course ([2]; 6.0 h)
0.00 s: Duration of mice paw licking ([1]; 0 min) | Duration of mice paw licking ([1]; 5 min) | Duration of mice paw licking ([1]; 10 min) | Duration of mice paw licking ([1]; 15 min) | Duration of mice paw licking ([1]; 20 min) | Duration of mice paw licking ([1]; 25 min) | Duration of mice paw licking ([1]; 30 min) | Duration of mice paw licking ([1]; 35 min) | Duration of mice paw licking ([1]; 40 min)
2/8: N/F, ED50 Biological Response ([3]; 22 mA, 0.175 mg/kg) | N/F, ED50 Biological Response ([3]; 32 mA, 0.3 mg/kg)
0/8: N/F, ED50 Biological Response ([3]; 32 mA, 0.2 mg/kg)
1/8: N/F, ED50 Biological Response ([3]; 22 mA, 0.09 mg/kg)
7/8: N/F, ED50 Biological Response ([3]; 22 mA, 0.7 mg/kg) | N/F, ED50 Biological Response ([3]; 32 mA, 0.415 mg/kg)
8/8: N/F, ED50 Biological Response ([3]; 32 mA, 0.83 mg/kg)
0/4: N/F, TOX time course ([4]; 0.25 h) | N/F, TOX time course ([4]; 0.5 h) | N/F, TOX time course ([4]; 1.0 h) | N/F, TOX time course ([4]; 2.0 h) | N/F, TOX time course ([4]; 4.0 h) | N/F, TOX time course ([4]; 6.0 h)

— patent US20060264455A1 (priority 2005, published 2006)
